In patent US9404916B2, “Use of a protein kinase inhibitor to detect immune cells, such as T cells” (University College Cardiff Consultants Limited, priority 2008, dated 2016):

What was measured:
[1] = target: IE6 TCR (on CTL clone IE6); experiment: flow cytometry, tetramer against CD8 APC on CTL clone IE6; Untreated

With “HLA A2/PPI15-24 tetramer (from UniProt P61769 21-119) (peptide-MHC)” as the substance, how does the % of cells in the tetramer+ CD8+ quadrant [1] read?
The % of cells in the tetramer+ CD8+ quadrant was 4%.

What about the % of cells in the tetramer+ CD8+ quadrant (Short term line) of the same substance?
The % of cells in the tetramer+ CD8+ quadrant was 0.02%.
